ChEMBL document CHEMBL4414598, “Trifluorinated Pyrimidine-Based A2B Antagonists: Optimization and Evidence of Stereospecific Recognition” (J Med Chem, 2019)

Each compound was assayed against T1, Adenosine receptor A2b (Homo sapiens) (UniProt P29275) (assay: Antagonist activity at human recombinant A2B receptor expressed in human HEK293 cells assessed as inhibition of NECA-stimulated cAMP production pre-incubated for 15 mins before NECA stimulation for 15 mins by cAMP enzyme immunoassay).
T1 sequence (whole entry): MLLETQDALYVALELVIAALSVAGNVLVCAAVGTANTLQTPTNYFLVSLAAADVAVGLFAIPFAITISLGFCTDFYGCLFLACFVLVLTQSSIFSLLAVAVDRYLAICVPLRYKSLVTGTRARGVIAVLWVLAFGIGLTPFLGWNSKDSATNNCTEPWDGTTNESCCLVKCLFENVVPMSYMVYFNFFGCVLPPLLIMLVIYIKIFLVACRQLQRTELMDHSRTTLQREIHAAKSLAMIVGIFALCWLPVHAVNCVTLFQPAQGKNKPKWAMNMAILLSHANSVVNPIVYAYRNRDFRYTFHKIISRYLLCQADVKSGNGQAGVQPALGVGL
Assay type: functional, cell-based

Kb [nM]	Structure (SMILES)
79.4	CCOC(=O)C1=C(C(F)(F)F)Nc2nc3ccccc3n2C1c1ccoc1 (racemic)
83.2	CC1=C(C(=O)OCC(F)(F)F)C(c2ccco2)n2c(nc3ccccc32)N1 (racemic)
106	CC1=C(C(=O)OC(C)C(F)(F)F)C(c2ccco2)n2c(nc3ccccc32)N1 (racemic)
